For eight molecules, Kd results are on record in patent publication US20230051872A1, “Multivalent D-Peptidic Compounds for Target Proteins” (Reflexion Pharmaceuticals, Inc., priority 2019, published 2023).

By UniProt entry, the sequences of proteins in these tests, tags left out. Residues count along the entry.
UniProt Q15116, 25-167 limits assumed: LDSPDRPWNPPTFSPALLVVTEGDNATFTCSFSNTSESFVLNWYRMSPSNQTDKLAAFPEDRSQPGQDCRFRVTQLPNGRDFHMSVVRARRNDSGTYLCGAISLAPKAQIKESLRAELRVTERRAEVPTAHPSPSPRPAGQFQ

B1: 977297 (designed binder)
chain: TIDQWLLKNAKEDAIAELKKAGITSDLYFNWINVAGSVSSVNYHKNFILKAHA
modifications: D-protein
B2: 977979 (designed binder)
chain: TIDQWLLKNAKEDAIAELKKAGITSDLYFNWINVASSVSSVNFHKNYILKAHA
modifications: D-protein
B3: 977298 (designed binder)
chain: TIDQWLLKNAKEDAIAELKKAGITSDLYFNWINVAGSVSSVNYHKNYILKAHA
modifications: D-protein
B4: 977299 (designed binder)
chain: TIDQWLLKNAKEDAIAELKKAGITSDLYFNWINDASSVSSVNFHKNYILKAHA
modifications: D-protein

The target of the first assay is Human PD-1-Fc (R&D Systems cat #1086-PD-050), biotinylated (human) (UniProt Q15116). Nature of the assay: SPR (Table 2).
Details: not given
By Kd is commonly meant the free concentration of one partner at which half of the binding sites on the other are occupied at equilibrium, for simple one-to-one binding. Molecule B1 returned an equilibrium dissociation constant (Kd) of 2950 nM.

Molecule B2 had a Kd of 536 nM.

Molecule B3 gave a dissociation constant Kd of 871 nM.

B4 displayed a Kd of 6480 nM.

The target of another assay is PD-1 (Homo sapiens, UniProt Q15116). Nature of the assay: Surface plasmon resonance (SPR) binding affinity to PD-1. Set-up: purchased R&D Systems 1086-PD-050. As to conditions: read-out: Binding Affinity KD; Table 2, variant D-peptidic domains, target protein PD-1. (In general: In SPR one partner is held on a chip, and binding of the other changes the refractive index at the surface.)
Consider “tidqwllknakedaiaelkkaGitsdlyfnwinvaGsvssvnyhknyilkaha [Compound 977298]”, for which the Kd was determined as 871 nM.

“tidqwllknakedaiaelkkaGitsdlyfnwinvassvssvnfhknyilkaha [Compound 977979]”: the dissociation constant Kd came out at 536 nM.

“tidqwllknakedaiaelkkaGitsdlyfnwinvaGsvssvnyhknfilkaha [Compound 977297]”: the dissociation constant Kd was determined as 2950 nM.

Regarding “tidqwllknakedaiaelkkaGitsdlyfnwindassvssvnfhknyilkaha [Compound 977299]”, the equilibrium dissociation constant (Kd) stood at 6480 nM.
